This assay has as its system TILs from human lung tumors. Kind of assay: In vitro expansion of human TILs cultured with IL-2 and/or IL-10. Type of assay: cell-based. The conditions noted are these: IL-2 alone, 6,000 U/mL rIL-2; FIG. 5A. The protocol:
TILs were isolated and cultured in the presence of 6,000 U/mL rIL-2, 100 U/mL rIL-10, or 6,000 U/mL rIL-2 plus 100 U/mL rIL-10. The numbers of live TILs counted are shown (y-axis). […] The expanded TILs in FIG. 5A were activated by anti-CD3/CD28 antibodies for 24 hours and tested for their ability to kill autologous primary tumor cells at an Effector:Target ratio of 20:1. The killing activity was measured at 15-minute intervals by Impedance assay. FIGS. 5C-D show IFNγ and TNFα expression in CD8+ TILs expanded in vitro. TILs from lung cancers were expanded in complete culture medium with 6,000 U/mL rIL-2 alone or combined with 100 U/mL rIL-10 for 20 days. IFNγ and TNFα expression in CD8+ TILs was analyzed by flow cytometry. Results shown in FIGS. 5A-D are representative of 3 to 6 patients. […] FIGS. 5F-J show mRNA expression of different pathways as indicated in IL-10/IL-2—treated human CD8+ TILs. Plotted are relative expression levels of mRNAs compared with those from IL-2-treated cells for each indicated gene based on gene chip data. Shown are the mean±SEM. Significance was determined by ANOVA in FIGS. 5F-J (*, P≤0.05; **, P≤0.01).
Human TILs Culture: Tumors were sliced with a sharp scalpel into small pieces (approximately 2 mm on each side). […]

For the substance “IL-2: interleukin-2, recombinant cytokine used to expand TILs”, the “expansion of TILs” value was “started to expand and enter logarithmic growth phase after 2 weeks of culture”.

The record behind these values is patent US11219645B2, “Tumor infiltrating lymphocytes for treatment of cancer” (Duke University, priority 2015, dated 2022).
